Data reported in ChEMBL document CHEMBL1139742, “3-(Indol-2-yl)indazoles as Chek1 kinase inhibitors: Optimization of potency and selectivity via substitution at C6” (Bioorg Med Chem Lett, 2006).

These compounds were tested against T1, Serine/threonine-protein kinase Chk1 (Homo sapiens, UniProt O14757) (assay: Inhibition of Chek1).
T1 sequence (O14757 whole entry): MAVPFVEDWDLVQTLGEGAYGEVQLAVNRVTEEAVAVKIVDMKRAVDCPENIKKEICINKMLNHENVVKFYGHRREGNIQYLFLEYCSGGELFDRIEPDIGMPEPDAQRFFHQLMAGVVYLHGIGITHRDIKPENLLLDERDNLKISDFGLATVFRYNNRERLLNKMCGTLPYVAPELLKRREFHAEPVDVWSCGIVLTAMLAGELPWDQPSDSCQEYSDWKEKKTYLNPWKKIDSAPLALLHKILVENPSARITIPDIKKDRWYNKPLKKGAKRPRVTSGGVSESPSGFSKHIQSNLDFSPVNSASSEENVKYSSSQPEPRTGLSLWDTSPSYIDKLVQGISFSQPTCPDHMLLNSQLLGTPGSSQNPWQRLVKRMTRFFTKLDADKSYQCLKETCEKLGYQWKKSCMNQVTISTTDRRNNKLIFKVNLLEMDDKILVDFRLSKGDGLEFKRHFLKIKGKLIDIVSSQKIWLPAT

Structure (SMILES) | IC50 [nM]
OCc1n[nH]nc1-c1ccc2c(-c3cc4cc(CN5CCCCC5)ccc4[nH]3)n[nH]c2c1 | 0.3

Species: Homo sapiens
Test: Selectivity for Chek1 over Cdk7

Structure (SMILES) | Ratio IC50
CN(C)C(=O)c1ccc2c(-c3cc4cc(CN5CCOCC5)ccc4[nH]3)n[nH]c2c1 | > 1200
N#Cc1ccc2c(-c3cc4cc(CN5CCOCC5)ccc4[nH]3)n[nH]c2c1 | 0.37
NC(=O)c1ccc2c(-c3cc4cc(CN5CCOCC5)ccc4[nH]3)n[nH]c2c1 | 110
CNC(=O)c1ccc2c(-c3cc4cc(CN5CCOCC5)ccc4[nH]3)n[nH]c2c1 | 380
c1cc2[nH]c(-c3n[nH]c4cc(-c5cn[nH]c5)ccc34)cc2cc1CN1CCOCC1 | 2.5
COC(=O)c1ccc2c(-c3cc4cc(CN5CCOCC5)ccc4[nH]3)n[nH]c2c1 | 100
